Test results published in ChEMBL document CHEMBL5154715, “Phenolic Lipids Derived from Cashew Nut Shell Liquid to Treat Metabolic Diseases” (J Med Chem, 2022).

By UniProt entry, the sequences of proteins in these tests, tags left out. Where a name states a change or a piece, a line headed by the entry shows the natural chain unless it says otherwise.
UniProt P37231: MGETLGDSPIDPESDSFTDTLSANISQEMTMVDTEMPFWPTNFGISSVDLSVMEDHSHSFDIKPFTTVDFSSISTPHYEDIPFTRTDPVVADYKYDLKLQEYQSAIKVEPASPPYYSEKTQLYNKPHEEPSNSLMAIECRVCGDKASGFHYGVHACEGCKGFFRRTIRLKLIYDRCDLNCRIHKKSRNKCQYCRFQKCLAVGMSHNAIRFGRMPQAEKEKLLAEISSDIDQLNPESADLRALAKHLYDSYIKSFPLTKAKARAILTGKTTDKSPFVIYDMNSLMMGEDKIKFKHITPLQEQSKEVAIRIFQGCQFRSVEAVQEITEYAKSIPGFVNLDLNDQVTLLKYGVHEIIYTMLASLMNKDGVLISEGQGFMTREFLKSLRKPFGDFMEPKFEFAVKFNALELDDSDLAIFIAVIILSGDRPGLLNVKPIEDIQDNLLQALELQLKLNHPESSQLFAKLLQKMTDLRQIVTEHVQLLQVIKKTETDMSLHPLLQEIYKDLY

Assays:
[1] = biological target: Peroxisome proliferator-activated receptor gamma (Homo sapiens, UniProt P37231); test: Agonist activity at human PPARgamma expressed in HEK293 cells assessed as maximal activity by luciferase/beta-galactosidase reporter gene assay relative to rosiglitazone; assay type: cell-based; settings: filed as agonist
Summary of the method: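 HEK293 cells in charcoal-stripped FBS, calcium phosphate co-transfected with GAL4-hPPAR LBD fusion, UAS-luciferase and β-galactosidase. Ligand added 6–8 h post transfection, full dose–response, harvested 14–16 h later. Luciferase normalized to β-galactosidase. Emax expressed relative to positive control (GW7647 for α, rosiglitazone for γ) set to 100%.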

[2] = biological target: T1, Peroxisome proliferator-activated receptor alpha (Homo sapiens) (UniProt Q07869); settings: dose 50.0 µM
T1 sequence (whole entry): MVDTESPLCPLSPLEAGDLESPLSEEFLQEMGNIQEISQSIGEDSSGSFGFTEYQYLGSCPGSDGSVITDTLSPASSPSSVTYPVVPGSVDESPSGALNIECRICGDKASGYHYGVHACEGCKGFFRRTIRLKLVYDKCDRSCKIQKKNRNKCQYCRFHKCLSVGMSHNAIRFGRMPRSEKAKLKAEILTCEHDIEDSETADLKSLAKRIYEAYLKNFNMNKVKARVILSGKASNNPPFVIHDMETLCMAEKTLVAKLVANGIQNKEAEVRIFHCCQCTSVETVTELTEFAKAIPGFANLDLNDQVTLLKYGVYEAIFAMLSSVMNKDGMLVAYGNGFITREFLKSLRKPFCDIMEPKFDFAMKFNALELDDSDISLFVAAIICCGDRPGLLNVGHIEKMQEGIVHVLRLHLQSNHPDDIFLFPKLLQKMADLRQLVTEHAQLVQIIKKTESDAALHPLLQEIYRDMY

[3] = biological target: T1, Peroxisome proliferator-activated receptor alpha (Homo sapiens); test: Stabilization of human PPARalpha LBD assessed as change in melting temperature at 25 uM by thermal shift assay
Summary of the method: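 Purified hPPAR LBD at 1 mg/mL (∼25 μM) with ligand (α-LBD at 25 μM; γ- and δ-LBD at 50 μM). Static light scattering at 473 nm from 25 to 70 °C in 0.5 °C steps, 1 °C/min. Tm from four-parameter fit; ΔTm relative to DMSO; mean ± SEM, N = 3.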

Emax [1] [%] | ΔTm [2] [°C] | ΔTm [3] [°C] | Compound
> 90 | – | – | CCCCCCCCCC(=O)O [DECANOIC ACID]
– | 5.2 | 5.2 | CC(C)(Sc1ccc(CCN(CCCCC2CCCCC2)C(=O)NC2CCCCC2)cc1)C(=O)O
